By UniProt entry, the sequences of proteins in these tests, tags left out.
UniProt Q15858, whole entry: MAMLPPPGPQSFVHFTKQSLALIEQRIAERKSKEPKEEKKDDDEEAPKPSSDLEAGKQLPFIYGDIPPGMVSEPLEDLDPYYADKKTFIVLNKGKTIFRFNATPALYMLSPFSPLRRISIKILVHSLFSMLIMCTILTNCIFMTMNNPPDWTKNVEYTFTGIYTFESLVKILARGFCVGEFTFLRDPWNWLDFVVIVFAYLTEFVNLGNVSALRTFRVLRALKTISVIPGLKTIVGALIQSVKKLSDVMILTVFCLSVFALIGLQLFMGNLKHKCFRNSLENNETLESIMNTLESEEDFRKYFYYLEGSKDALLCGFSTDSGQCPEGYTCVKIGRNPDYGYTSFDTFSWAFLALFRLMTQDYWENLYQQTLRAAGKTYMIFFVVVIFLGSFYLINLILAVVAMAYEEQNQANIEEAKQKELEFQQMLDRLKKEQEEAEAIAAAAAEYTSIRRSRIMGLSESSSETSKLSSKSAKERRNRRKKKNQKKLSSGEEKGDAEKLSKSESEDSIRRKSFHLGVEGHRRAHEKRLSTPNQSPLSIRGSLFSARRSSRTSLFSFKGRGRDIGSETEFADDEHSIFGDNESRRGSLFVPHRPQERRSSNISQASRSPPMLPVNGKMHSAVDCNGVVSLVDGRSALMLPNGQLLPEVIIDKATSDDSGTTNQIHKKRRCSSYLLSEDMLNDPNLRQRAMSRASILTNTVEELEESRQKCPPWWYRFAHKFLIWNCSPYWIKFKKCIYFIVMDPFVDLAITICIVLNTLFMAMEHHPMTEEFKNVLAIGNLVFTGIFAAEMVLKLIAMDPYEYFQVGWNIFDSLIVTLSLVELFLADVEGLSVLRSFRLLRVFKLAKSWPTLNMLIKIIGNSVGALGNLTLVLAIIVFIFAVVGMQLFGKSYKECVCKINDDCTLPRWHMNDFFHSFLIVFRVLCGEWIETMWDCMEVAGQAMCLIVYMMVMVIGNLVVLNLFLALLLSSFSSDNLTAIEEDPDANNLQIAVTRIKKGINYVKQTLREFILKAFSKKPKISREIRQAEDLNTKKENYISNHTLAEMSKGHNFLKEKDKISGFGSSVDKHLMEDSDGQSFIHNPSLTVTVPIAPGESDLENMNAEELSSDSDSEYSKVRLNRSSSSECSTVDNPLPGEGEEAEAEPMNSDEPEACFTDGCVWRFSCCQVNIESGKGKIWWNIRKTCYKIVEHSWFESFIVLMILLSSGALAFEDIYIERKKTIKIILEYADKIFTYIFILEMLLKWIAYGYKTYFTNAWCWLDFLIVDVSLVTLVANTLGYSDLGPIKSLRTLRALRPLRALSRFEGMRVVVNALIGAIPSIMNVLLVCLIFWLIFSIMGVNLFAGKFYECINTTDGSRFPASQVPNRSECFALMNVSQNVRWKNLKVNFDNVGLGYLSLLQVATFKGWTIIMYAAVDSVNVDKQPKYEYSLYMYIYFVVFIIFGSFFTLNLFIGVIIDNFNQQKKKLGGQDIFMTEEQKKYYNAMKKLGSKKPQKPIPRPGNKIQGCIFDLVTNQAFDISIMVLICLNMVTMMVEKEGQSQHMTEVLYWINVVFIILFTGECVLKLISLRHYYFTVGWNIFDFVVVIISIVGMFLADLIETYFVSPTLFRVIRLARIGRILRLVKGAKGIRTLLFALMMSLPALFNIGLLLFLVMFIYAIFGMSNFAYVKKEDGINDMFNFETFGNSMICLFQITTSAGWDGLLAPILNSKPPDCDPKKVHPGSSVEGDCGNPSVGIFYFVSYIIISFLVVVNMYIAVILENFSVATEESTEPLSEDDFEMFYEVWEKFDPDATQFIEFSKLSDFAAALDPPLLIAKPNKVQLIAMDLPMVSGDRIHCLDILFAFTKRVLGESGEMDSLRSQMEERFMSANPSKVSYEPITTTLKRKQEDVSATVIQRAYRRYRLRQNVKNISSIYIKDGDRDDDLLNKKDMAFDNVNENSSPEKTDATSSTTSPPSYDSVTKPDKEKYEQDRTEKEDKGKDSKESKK

According to ChEMBL document CHEMBL5726294, “Derivatives of 6-(2,3-dichlorophenyl)-1,2,4-triazin-5-amine” (2019):

Columns and labels:
[1] = target: T1, Sodium channel protein type 9 subunit alpha (Homo sapiens, UniProt Q15858); assay: (§1) Ex-Vivo Potencies in Inactivated state: The potencies of the compounds provided herein to block specific Na+ channels was measured using automated patch clamp electrophysiologically of Nav1.7 sodium channels (human SCN9A gene) stably expressed in CHO cells using the IonWorks Barracuda system. Currents were measured from the whole cell patch configuration. From a holding potential of −90 mV, membranes were subjected to a 200 ms pre-pulse to −120 mV, then pulsed to 0 mV to measure blockade of the tonic (resting) state. Inactivated state block was elicited by repolarization to −100 mV (20 ms pulse duration), followed by depolarization to 0 mV (20 ms pulse duration). Peak inward Na+ currents were measured in the presence of vehicle or various concentrations of the test compound to determine the percent block of current.; assay type: cell-based
[2] = target: T1, Sodium channel protein type 9 subunit alpha; assay: as §1, with “in Tonic” for “in Inactivated”; assay type: cell-based

In the case of `COC[C@@H](O)COC1CN(c2nnc(-c3cccc(Cl)c3Cl)c(N)n2)C1`, the IC50 [1] is reported as 256 µM and the IC50 [2] is reported as over 200 µM.
